Values quoted from earlier work, collected in patent publication US10576309B2, “Method of reducing perspiration” (BEIERSDORF AG, priority 2015, dated 2020).

For Silicic acid, the pKa1 (first dissociation constant) is given as 9.51 and the pKa2 (second dissociation constant) is given as 11.74.
